# Binding of CDR-mutated scFvs to a peptide of the spike HR2 region

Source: Engelhart et al. 2022 (doi:10.1038/s41597-022-01779-4), MIT Lincoln Laboratory and A-Alpha Bio; data file from the FLAb repository.

All variants were tested on one target, the spike HR2 peptide PDVDLGDISGINAS (SARS-CoV-2).

Ab-95 is the parent antibody, in scFv form: VH, then the linker GGGGSGGGGSGGGGS, then VL. The heavy chain is unchanged in all variants.
VH: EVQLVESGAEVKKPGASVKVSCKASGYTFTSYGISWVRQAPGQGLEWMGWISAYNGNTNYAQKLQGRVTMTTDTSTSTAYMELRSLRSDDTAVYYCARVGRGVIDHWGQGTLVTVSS
VL: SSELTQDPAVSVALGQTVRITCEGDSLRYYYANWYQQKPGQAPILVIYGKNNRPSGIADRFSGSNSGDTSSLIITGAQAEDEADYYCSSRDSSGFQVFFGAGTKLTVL

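Variants in AAYL52 differ from the parent at up to three CDR positions; double and triple changes were sampled at random. Affinity was read by AlphaSeq, a pooled yeast mating assay with surface-displayed partners. Pairs that bind mate more often; barcode pairs of the diploids are counted by sequencing. The ratio of observed to expected reads was calibrated, replicate by replicate, on BCL2-family standards whose Kd was known from biolayer interferometry. The assay was run in three technical replicates.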

Variants are written as CDR1, CDR2 and CDR3 of the light chain (limits as in the source). Parent: EGDSLRYYYAN, GKNNRPS, SSRDSSGFQVF. The read-out is the apparent dissociation constant on a log10 scale (nM): the lower, the stronger. The mean shown is taken over the replicates in which the pair was detected. "ND" means that the variant was in the library but no mating with the target was seen in that replicate; the authors take this as a sign of poor binding, and no number exists.

CDR-L1,CDR-L2,CDR-L3,log10 Kd (nM) by replicate,mean log10 Kd (nM),empty controls
EGDSLRYYYAC,GKNNRPS,SQRDSSEFQVF,4.87 / 5.54 / ND,5.20,4 of 9 (3.81)
EGDSLRYYYAN,GKGNRPS,CSTDSSGFQVF,2.82 / 3.15 / 3.12,3.03,7 of 9 (4.07)
EGDSLDYYYAN,GKNNRPS,KSRDSSGFQVY,ND / 4.55 / ND,4.55,1 of 9 (3.90)
EGDSLRYYYAN,QKNNRPS,SSRDSTGFQVN,ND / ND / ND,ND,0 of 9
EGDPLRYYYAN,GKNNHPS,SSADSSGFQVF,ND / 5.58 / 3.79,4.69,4 of 9 (3.47)
EGDSLRYYYAN,GKNNRPV,SSRDKSGFQQF,1.97 / 1.93 / 2.49,2.13,1 of 9 (4.92)
EGDILRLYYAN,GKNNRPC,SSRDSSGFQVF,ND / 4.71 / 3.86,4.28,5 of 9 (3.68)
PGDSLRYYYAN,TKNNRPS,SKRDSSGFQVF,4.85 / ND / ND,4.85,0 of 9
EGDSLRYYYAN,GKNNRPE,SSWDSSGFEVF,2.60 / 2.33 / 1.54,2.16,5 of 9 (3.84)
EGDSLRYYYAN,GKRNRPS,SSRDSSGFQVF,4.36 / ND / ND,4.36,1 of 9 (3.52)
EGDSARYYHAN,GKNNRPS,SSRDSSDFQVF,4.68 / ND / ND,4.68,2 of 9 (3.57)
EGDSLRYYYAN,GKNNRPS,SSRDSSNFTVF,ND / 2.50 / ND,2.50,2 of 9 (3.60)
NGDSLRYYYAN,GKNNRPS,WSRDSSNFQVF,2.38 / 2.16 / 2.56,2.36,5 of 9 (3.61)
EYDSRWYYYAN,GKNNRPS,SSRDSSGFQVF,ND / 4.72 / ND,4.72,6 of 9 (3.69)
EGDSLRYYYAY,DKNNRPS,SSRDSFGFQVF,ND / ND / ND,ND,4 of 9 (3.56)
ERDSLRYYYAN,GNNNRPS,SSRDSSTFQVF,3.06 / 2.30 / 2.11,2.49,4 of 9 (4.04)
SGDSLRYYKAN,GKNNRNS,SSRDSSGFQVF,2.23 / 1.98 / 2.59,2.27,1 of 9 (4.97)
EGDSLRYYYAN,GKNLRPS,SSMDSNGFQVF,ND / ND / ND,ND,1 of 9 (4.61)
EGDSLEYYSAN,GKNNRPS,SSRDSIGFQVF,3.74 / 5.73 / 4.46,4.64,2 of 9 (3.64)
EGDSLRAYYAN,GKNGRPS,SSRDSSGFEVF,2.69 / 2.05 / 1.98,2.24,5 of 9 (4.42)
EGDSLRYYYAN,GKNNRPS,WSMDSTGFQVF,ND / 3.53 / ND,3.53,1 of 9 (4.68)
EGDSLRYYYAN,GKCNRPS,MLRDSSGFQVF,ND / ND / ND,ND,0 of 9
SFDSLRYLYAN,GKNNRPS,SSRDSSGFQVF,3.52 / 2.67 / 2.64,2.94,5 of 9 (4.09)
NGMSLRSYYAN,GKNNRPS,SSRDSSGFQVF,1.89 / 1.95 / 2.07,1.97,0 of 9
EGHSLRYYYAN,GKNNRGS,SSRDSSGFYVF,5.16 / ND / ND,5.16,3 of 9 (4.34)
EGDSLRLYYLN,GKNNRPS,SSRDSSGFRVF,5.75 / 4.90 / ND,5.32,3 of 9 (4.13)
EGDSLRYYYAN,GKNIRPS,PSRDGSGFQVF,2.26 / 2.72 / ND,2.49,1 of 9 (4.61)
EGDSLRAYYAN,GKVNRPS,SSRDYSGFQVF,3.18 / 3.67 / 4.13,3.66,4 of 9 (4.43)
EGDILRYYYAN,GKNNRPS,FSRDSSGTQVF,3.60 / 2.98 / 2.32,2.97,1 of 9 (3.38)
EGDSLRYYYAN,GKNQRPS,SWRDSSGFQVF,3.46 / 2.73 / 2.19,2.80,2 of 9 (4.09)
EGDSLRQEYAN,GTNNRPS,SSRDSSGFQVF,1.26 / 1.17 / 0.70,1.04,3 of 9 (2.82)
FGDELRYYYAN,GKNNRPS,SSRMSSGFQVF,3.85 / ND / ND,3.85,7 of 9 (4.31)
EGDSLRYYYAN,YKNNRPS,SSRDSRGPQVF,ND / ND / ND,ND,1 of 9 (3.97)
EGKSLNYYYAI,GKNNRPS,SSRDSSGFQVF,3.77 / ND / ND,3.77,1 of 9 (2.75)
EGISLRYYYAN,VKNNRPS,YSRDSSGFQVF,5.01 / ND / ND,5.01,2 of 9 (4.30)
EGDSLRYYYMN,GKNNRNS,SSRDSSGFQRF,3.80 / ND / ND,3.80,3 of 9 (4.12)
EKDSLRYYYAN,GKDNRPS,SSRDSSGFQVF,3.55 / 4.30 / 4.13,3.99,8 of 9 (3.53)
EGDSLRYYYAN,GHNNRPS,SSRDFSGFQAF,3.09 / 2.32 / 2.72,2.71,3 of 9 (4.54)
EGMSLQYYYAL,GKNNRPS,SSRDSSGFQVF,ND / 5.12 / ND,5.12,0 of 9
ESDSLDYYYAN,GKNNRPS,SSRDSSGFQEF,3.85 / ND / 3.54,3.69,4 of 9 (3.94)
EGDSLRYNYAN,GKNNRPS,SSRQSSGFQNF,1.41 / 1.79 / 1.54,1.58,6 of 9 (4.12)
EIDSLRYFYAN,GKNNRPS,SSRDSSGFQEF,3.56 / ND / ND,3.56,2 of 9 (3.80)

Top 6 of the variants detected in all replicates, tightest first:

CDR-L1,CDR-L2,CDR-L3,log10 Kd (nM) by replicate,mean log10 Kd (nM),empty controls
EGDSLRQEYAN,GTNNRPS,SSRDSSGFQVF,1.26 / 1.17 / 0.70,1.04,3 of 9 (2.82)
EGDSLRYNYAN,GKNNRPS,SSRQSSGFQNF,1.41 / 1.79 / 1.54,1.58,6 of 9 (4.12)
NGMSLRSYYAN,GKNNRPS,SSRDSSGFQVF,1.89 / 1.95 / 2.07,1.97,0 of 9
EGDSLRYYYAN,GKNNRPV,SSRDKSGFQQF,1.97 / 1.93 / 2.49,2.13,1 of 9 (4.92)
EGDSLRYYYAN,GKNNRPE,SSWDSSGFEVF,2.60 / 2.33 / 1.54,2.16,5 of 9 (3.84)
EGDSLRAYYAN,GKNGRPS,SSRDSSGFEVF,2.69 / 2.05 / 1.98,2.24,5 of 9 (4.42)

For reference, the parent read 2.31 as the reference entry and 2.25 as a member of this library. Background: pairings of library AAYL52 with three empty control strains gave a value in 28% of cases (median 3.91, 5th percentile 2.90). Values in that range, when seen in few replicates, are hard to tell from nonspecific mating. The control count says in how many pairings with the empty strains this scFv gave a signal, with their mean in brackets.